Entries after “also recorded” stand apart in the source; their conditions may differ.
Legend:
hair follicles = settings: mice treated with 32 mM
Text: (§1) Mouse dorsal skin was shaved before being collected for histological and molecular analyses. Full-thickness skin tissue was then fixed in 10% formalin solution (Sigma, HT501128) overnight and dehydrated for embedding in paraffin. […] Images were captured by Leica Aperio ScanScope AT brightfield system at ×20 magnification.

mouse skin = settings: visual inspection, confirmed by IL-6 and F4/80 staining
Text: as §1

LC3 = test: Western blot of treated mouse skin: LC3; format: in vivo; settings: 24 hours and 5 days post-treatment
Description: (§2) Male mice were shaved and treated every other day starting on Postnatal Day 43. After 5 days, telogen skin samples were harvested and stage confirmed. […] Tissue and cell debris were removed by centrifugation and the lysate was boiled for 5 min in 1×SDS loading buffer containing 5% β-mercaptoethanol.

p62/SQSTM1 = test: Western blot of treated mouse skin: p62; format: in vivo; settings: treated mouse telogen skin
Description: as §2

[1] = system: Beclin 1 S14 phosphorylation; test: Western blot of treated mouse skin: phosphorylated Beclin 1 S14; format: in vivo; settings: Day 5 post-treatment
Description: as §2

[2] = system: Beclin 1 S91 phosphorylation; test: Western blot of treated mouse skin: phosphorylated Beclin 1 S91; format: in vivo
Description: (§3) Male mice were shaved and treated every other day starting on Postnatal Day 43. After 5 days, telogen skin samples were harvested and stage confirmed. Mouse skin tissue lysate was prepared by homogenization in T-PER Tissue Protein Extraction Buffer (Thermo Scientific, 78510) with protease inhibitors (Roche, 11836153001) and phosphatase inhibitors (Sigma, P5726) by FastPrep-24 (MP Biomedicals). Tissue and cell debris were removed by centrifugation and the lysate was boiled for 5 min in 1×SDS loading buffer containing 5% β-mercaptoethanol. Samples were then subjected to SDS-PAGE on NuPAGE Novex 12% Bis-Tris gels (Invitrogen, NP0343BOX), and western blotting was carried out with antibodies against LC3 (Novus, NB100-2220), p62 (Sigma, P0068), Phospho-Beclin-1 (Ser15) (corresponding to Ser14 in mouse) (Cell Signaling, 84966), Phospho-Beclin-1 (Ser93) (corresponding to Ser91 in mouse) (Cell Signaling, 14717), Beclin-1 (Abcam, ab207612), or GAPDH (Ambion, AM4300).

[3] = system: autophagy related markers; test: Western blot analysis of autophagy related markers in telogen skin; format: in vivo, mouse; settings: telogen skin of mice treated for 6 hours, 24 hours, and 5 days
Description: as §3

p62 transcript = test: Quantitative RT-PCR of p62 transcript in treated skin; format: in vivo, mouse; settings: 24 hours post-treatment, B2m internal control
Description: At 24 hours post-treatment, telogen skin samples were harvested and total RNA was isolated using TRIzol reagent (Invitrogen) from whole thickness mouse skin tissue. cDNA was synthesized using iScript Reverse Transcription Supermix (Bio-Rad). iTaq Universal SYBR Green Supermix (Bio-Rad) and a Bio-Rad CFX Connect instrument were used for quantitative RT-PCR. The primer sequences used for RT-qPCR are as follows: […]

[4] = system: C57BL/6J mouse dorsal skin; test: Assay for hair regeneration in mice (topical treatment of shaved telogen dorsal skin)
[5] = male mice shaved Postnatal Day 57 (8-week old), topical 32 mM every other day

SMILES: O=C(O)CCC(=O)C(=O)O [α-KG, α-ketoglutarate]
- H&E stained skin tissue sections (hair follicles): new hair follicles and enlarged bulbs, elongated hair shafts, and thickened dermal layers
- Skin irritation or inflammation (mouse skin): no evidence of skin irritation or inflammation
- Autophagy induction by Western blot analysis of LC3 (LC3): Increased autophagy induction
- p62 expression (Western blot) (p62/SQSTM1): increased
- Beclin 1 S14 phosphorylation (mTOR-dependent) [1]: increased
- Beclin 1 S91 phosphorylation (AMPK-dependent) [2]: increased
- Autophagy associated markers, including LC3, p62, and phosphorylated Beclin 1 [3]: Induction
- p62 transcript levels (quantitative RT-PCR) (p62 transcript): increased
- Rapid anagen entry on whole dorsal telogen skin ([4]; among treated mice): observed from time to time
- Hair regeneration in female mice ([4]; female mice shaved Postnatal Day 58, topical 16 mM every other day, Day 26 post-treatment): stimulate hair regeneration
- Time until hair growth from the pigmented skin areas was visible ([4]; male mice shaved Postnatal Day 44, topical 32 mM every other day): 5 to 7 days
- Hair regeneration ([4]; male mice shaved Postnatal Day 44, topical 32 mM every other day, Day 39 post-treatment): induces hair regeneration; also recorded: exhibited overall hair growth; also recorded: drastically enhances hair regeneration; also recorded: exhibited robust hair growth
- Day by which full dorsal hair coverage was observed [4, 5]: ≤ 20 days
- Day on which pigmentation became visible [4, 5]: 7 days
- Hair regeneration in 8-week old animals ([4]; male mice shaved Postnatal Day 57, topical 32 mM every other day, Day 20 post-treatment, compared to 6.5-week old mice): induces faster hair regeneration; also recorded: even more dramatic
- Day post-treatment on which new anagen waves were initiated ([4]; telogen skin): 7 days

— patent US20210145833A1, “Methods and Compositions for Hair Growth by Activating Autophagy” (The Regents of the University of California, priority 2018, published 2021)
